{"source": "patent EP1134585B1", "about": "“Biosensor and method for the monitoring of herbicides” (CONSIGLIO NAZIONALE DELLE RICERCHE, priority 2000, dated 2001)", "origin": "cited, not measured here", "key": {"[1]": {"molecular_target": "D1 protein Phe255->Leu Ser264→Ala (Synechococcus elongatus, UniProt P04996, F255L/S264A)", "settings": "Synechococcus PCC7942, code Di22; cited from earlier work"}, "[2]": {"molecular_target": "D1 protein Ser264->Ala (Synechococcus elongatus, UniProt P04996, S264A)", "settings": "Anacystis nidulans R2; cited from earlier work"}, "[3]": {"molecular_target": "D1 protein A1a251->Cys (Chlamydomonas reinhardtii, UniProt P07753, A251C)", "settings": "cited from earlier work"}, "[4]": {"molecular_target": "D1 protein A1a251→Gly (Chlamydomonas reinhardtii, UniProt P07753, A251G)", "settings": "cited from earlier work"}, "[5]": {"molecular_target": "D1 protein Ser264->Ala (Chlamydomonas reinhardtii, UniProt P07753, S264A)", "settings": "codes MZ1 MZ3 MZ5; cited from earlier work"}, "[6]": {"molecular_target": "D1 protein Leu275->Phe (MZ4) (Chlamydomonas reinhardtii, UniProt P07753, L275F)", "settings": "code MZ4; cited from earlier work"}, "[7]": {"molecular_target": "D1 protein Ala250->Arg (Chlamydomonas reinhardtii, UniProt P07753, A250R)", "settings": "cited from earlier work"}, "[8]": {"molecular_target": "D1 protein Ala250->Asn (Chlamydomonas reinhardtii, UniProt P07753, A250N)", "settings": "cited from earlier work"}, "[9]": {"molecular_target": "D1 protein A1a250->His (Chlamydomonas reinhardtii, UniProt P07753, A250H)", "settings": "cited from earlier work"}, "[10]": {"molecular_target": "D1 protein A1a250->Tyr (Chlamydomonas reinhardtii, UniProt P07753, A250Y)", "settings": "cited from earlier work"}, "[11]": {"molecular_target": "D1 protein A1a263->Pro (Synechocystis sp., UniProt P16033, A263P)", "settings": "cited from earlier work"}, "[12]": {"molecular_target": "D1 protein Ser264->Pro (Synechocystis sp., UniProt P16033, S264P)", "settings": "cited from earlier work"}, "[13]": {"molecular_target": "D1 protein Val219->Ile (Chlamydomonas reinhardtii, UniProt P07753, V219I)", "settings": "code Dr2; cited from earlier work"}, "[14]": {"molecular_target": "D1 protein Ala250->Asp (Chlamydomonas reinhardtii, UniProt P07753, A250D)", "settings": "cited from earlier work"}, "[15]": {"molecular_target": "D1 protein A/a251->lIe (Chlamydomonas reinhardtii, UniProt P07753, A251I)", "settings": "cited from earlier work"}, "[16]": {"molecular_target": "D1 protein Ala251→Leu (Chlamydomonas reinhardtii, UniProt P07753, A251L)", "settings": "cited from earlier work"}, "[17]": {"molecular_target": "D1 protein Ala251-Val (Chlamydomonas reinhardtii, UniProt P07753, A251V)", "settings": "code MZ2; cited from earlier work"}, "[18]": {"molecular_target": "D1 protein Phe211→Ala Met214→Thr (Chlamydomonas reinhardtii, UniProt P07753, F211A/M214T)", "settings": "cited from earlier work"}, "[19]": {"molecular_target": "D1 protein Phe211→Gly Met214→Gln (Chlamydomonas reinhardtii, UniProt P07753, F211G/M214Q)", "settings": "cited from earlier work"}, "[20]": {"molecular_target": "D1 protein Phe211-+Gly Met214->Ser (Chlamydomonas reinhardtii, UniProt P07753, F211G/M214S)", "settings": "cited from earlier work"}, "[21]": {"molecular_target": "D1 protein Phe211->Thr Met214->Gly (Chlamydomonas reinhardtii, UniProt P07753, F211T/M214G)", "settings": "cited from earlier work"}, "[22]": {"molecular_target": "D1 protein Phe255->Tyr Ser264->Ala (Synechococcus elongatus, UniProt P04996, F255Y/S264A)", "settings": "code D5; cited from earlier work"}, "[23]": {"molecular_target": "D1 protein Ser264→Ala Asn266→Thr (Chlamydomonas reinhardtii, UniProt P07753, N266T/S264A)", "settings": "cited from earlier work"}, "[24]": {"molecular_target": "D1 protein I1e259->Ser Ser264->Ala Asn266->Thr (Chlamydomonas reinhardtii, UniProt P07753, I259S/N266T/S264A)", "settings": "cited from earlier work"}, "[25]": {"molecular_target": "D1 protein Gly256->Asp (Chlamydomonas reinhardtii, UniProt P07753, G256D)", "settings": "code BR24; cited from earlier work"}, "[26]": {"molecular_target": "D1 protein Leu275->Phe (Br202) (Chlamydomonas reinhardtii, UniProt P07753, L275F)", "settings": "code Br202; cited from earlier work"}, "[27]": {"molecular_target": "D1 protein Phe255->Tyr (Chlamydomonas reinhardtii, UniProt P07753, F255Y)", "settings": "code Ar207+; cited from earlier work"}}, "data": [{"smiles": "CCS(=O)(=O)c1nnc(N(C)C(=O)NC)s1", "note": "[Ethidimuron]", "values": [{"measurement": "R/S Resistance", "setting": "[1]", "result": "Ethidimuron 16"}]}, {"smiles": "CCCCCCCc1cc(O)c2ccccc2[n+]1[O-]", "note": "[HQNO]", "values": [{"measurement": "R/S Resistance", "setting": "[2]", "result": "HQNO 6"}]}, {"smiles": "N#Cc1cc(Br)c(O)c(Br)c1", "note": "[Bromoxynil]", "values": [{"measurement": "R/S Resistance", "setting": "[3]", "result": "Bromoxynil 6,3"}, {"measurement": "R/S Resistance", "setting": "[4]", "result": "Bromoxynil 2,5"}]}, {"smiles": "CCN(C(=O)Oc1cccc(NC(=O)OC(C)C)c1)c1ccccc1", "note": "[Phenisopham]", "values": [{"measurement": "R/S Resistance", "setting": "[5]", "result": "Phenisopham 40"}]}, {"smiles": "CC(C)Cc1cc([N+](=O)[O-])cc([N+](=O)[O-])c1O", "note": "[i-Dinoseb]", "values": [{"measurement": "R/S Resistance", "setting": "[6]", "result": "i-Dinoseb 3"}]}, {"smiles": "CCNc1nc(NC(C)(C)C)nc(SC)n1", "note": "[Terbutryn]", "values": [{"measurement": "R/S Resistance", "setting": "[7]", "result": "Terbutryn 1,3"}, {"measurement": "R/S Resistance", "setting": "[8]", "result": "Terbutryn 1,3"}, {"measurement": "R/S Resistance", "setting": "[9]", "result": "Terbutryn 1,8"}, {"measurement": "R/S Resistance", "setting": "[10]", "result": "Terbutryn 1,3"}, {"measurement": "R/S Resistance", "setting": "[3]", "result": "Terbutryn 1,0"}, {"measurement": "R/S Resistance", "setting": "[4]", "result": "Terbutryn 1"}, {"measurement": "R/S Resistance", "setting": "[11]", "result": "Terbutryn 160"}, {"measurement": "R/S Resistance", "setting": "[12]", "result": "Terbutryn 300"}, {"measurement": "R/S Resistance", "setting": "[1]", "result": "Terbutryn 1,5"}]}, {"smiles": "CSc1nnc(C(C)(C)C)c(=O)n1N", "note": "[Metribuzin]", "values": [{"measurement": "R/S Resistance", "setting": "[13]", "result": "Metribuzin 200"}, {"measurement": "R/S Resistance", "setting": "[14]", "result": "Metibuzin 1,3"}, {"measurement": "R/S Resistance", "setting": "[9]", "result": "Metribuzin 1,3"}, {"measurement": "R/S Resistance", "setting": "[3]", "result": "Metribuzin 2,5"}, {"measurement": "R/S Resistance", "setting": "[15]", "result": "Metribuzin 55"}, {"measurement": "R/S Resistance", "setting": "[16]", "result": "Metribuzin 108"}, {"measurement": "R/S Resistance", "setting": "[17]", "result": "Metribuzin 1000"}, {"measurement": "R/S Resistance", "setting": "[11]", "result": "Metribuzin 1600"}, {"measurement": "R/S Resistance", "setting": "[12]", "result": "Metribuzin 25"}, {"measurement": "R/S Resistance", "setting": "[6]", "result": "Metribuzin 20-26"}, {"measurement": "R/S Resistance", "setting": "[18]", "result": "Metribuzin 1"}, {"measurement": "R/S Resistance", "setting": "[19]", "result": "Metribuzin 1"}, {"measurement": "R/S Resistance", "setting": "[20]", "result": "Metribuzin 1,6"}, {"measurement": "R/S Resistance", "setting": "[21]", "result": "Metribuzin 1"}, {"measurement": "R/S Resistance", "setting": "[1]", "result": "Metribuzin 175"}, {"measurement": "R/S Resistance", "setting": "[22]", "result": "Metribuzin 2000"}, {"measurement": "R/S Resistance", "setting": "[23]", "result": "Metribuzin 1580"}, {"measurement": "R/S Resistance", "setting": "[24]", "result": "Metribuzin 1550"}]}, {"smiles": "CNC(=O)Nc1nc2ccccc2s1", "note": "[Benzthiazuron]", "values": [{"measurement": "R/S Resistance", "setting": "[13]", "result": "Benzthiazuron 16"}, {"measurement": "R/S Resistance", "setting": "[17]", "result": "Benzthiazuron 16"}, {"measurement": "R/S Resistance", "setting": "[5]", "result": "49-80"}, {"measurement": "R/S Resistance", "setting": "[6]", "result": "Benzthiazuron 4"}, {"measurement": "R/S Resistance", "setting": "[23]", "result": "Benzthiazuron 50"}, {"measurement": "R/S Resistance", "setting": "[24]", "result": "Benzthiazuron 20"}]}, {"smiles": "CCC(C)n1c(=O)[nH]c(C)c(Br)c1=O", "note": "(centres unmarked) [Bromacil]", "values": [{"measurement": "R/S Resistance", "setting": "[15]", "result": "Bromacil 11"}, {"measurement": "R/S Resistance", "setting": "[16]", "result": "Bromacil 26"}, {"measurement": "R/S Resistance", "setting": "[25]", "result": "Bromacil 10"}, {"measurement": "R/S Resistance", "setting": "[5]", "result": "Bromacil 106"}, {"measurement": "R/S Resistance", "setting": "[26]", "result": "Bromacil 4,5"}, {"measurement": "R/S Resistance", "setting": "[1]", "result": "Bromacil 37"}, {"measurement": "R/S Resistance", "setting": "[22]", "result": "Bromacil 17"}]}, {"smiles": "CCC(C)c1cc([N+](=O)[O-])cc([N+](=O)[O-])c1O", "note": "(centres unmarked) [Dinoseb]", "values": [{"measurement": "R/S Resistance", "setting": "[13]", "result": "Dinoseb 7,5"}, {"measurement": "R/S Resistance", "setting": "[17]", "result": "Dinoseb 3"}, {"measurement": "R/S Resistance", "setting": "[27]", "result": "Dinoseb 3"}]}, {"smiles": "CNC(=O)N(C)c1nnc(C(C)(C)C)s1", "note": "[Thebuthiron]", "values": [{"measurement": "R/S Resistance", "setting": "[1]", "result": "Thebuthiron 6,2"}]}, {"smiles": "O=C1C(Br)=C(Br)C(=O)C(Br)=C1Br", "note": "[Bromanil]", "values": [{"measurement": "R/S Resistance", "setting": "[13]", "result": "Bromanil 1,2-2"}]}, {"smiles": "O=c1[nH]c2c(c(=O)n1C1CCCCC1)CCC2", "note": "[Lenacil]", "values": [{"measurement": "R/S Resistance", "setting": "[17]", "result": "Lenacil 160"}, {"measurement": "R/S Resistance", "setting": "[6]", "result": "Lenacil 3"}]}]}
